The list shows a part of the results, in another mix than the full data. The source made the active and inactive calls.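 Rule for the calls: active = mean luciferase reporter signal, scaled so untreated is 0 and the glycosylation-blocking control 100, at or above a set limit in every replicate; inconclusive = mean reaches the limit but not every replicate does; inactive = mean below the limit.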

A short description of the test: D54 reporter luminescence gain compounds – D54 ERlucT cells, set 2, N-linked glycosylation inhibitor project, primary screen (AID 588692).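 Note: luciferase carries N-glycosylation sites so blocking glycosylation raises the light; 0% = median of neutral control wells and 100% = median of 100 nM tunicamycin wells.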 The note with it: D54 ERlucT glycosylation luciferase reporter, 24 h; at 12.5 µM; hits give high values; percent of 100 nM tunicamycin response. Background: Reporter assays use an easily measured gene product as a stand-in for the process of interest.
Regarding `CCN(N=Nc1nonc1N)c1nonc1N`, the reporter increase is inactive: 0.884%. Then `Nc1cccc2ccc([As](=O)(O)O)cc12`, with inactive: 1.36%; and `Cc1ccc(NP(=O)(Oc2ccccc2F)Oc2ccccc2F)nc1`, with inactive: 1.85%; and `CN(C(=O)Cc1ccc(Cl)c(Cl)c1)[C@H]1CCCC[C@@H]1N1CCCC1`, with inactive: -2.78%.

With `CCOP(=O)(Nc1ccccc1)OCC`, the reporter increase is inactive: -1.35%. Then `Cc1cc(SC(NC(=O)c2ccc(F)cc2)C(Cl)(Cl)Cl)ncn1` (centres undefined), with inactive: 0.608%; and `CCCC1OP(N)(=O)OCC1CC` (centres undefined), with inactive: 0.58%.

Take `O=C(O)c1ccccc1[As](=O)(O)O`: the reporter increase is inactive: -0.137%. In the case of `CC(=O)Nc1ccc([As](=O)(O)O)cc1` it was inactive: 1.84%; in that of `CN(C)P(=O)(N(C)C)n1c(Nc2ccccc2)nnc1-c1ccccc1`, inactive: 2.37%; in that of `O=P(Nc1nc2ccc(Cl)cc2s1)(c1ccccc1)c1ccccc1`, inactive: 1.71%.

As to `O=[N+]([O-])C1C(O)C(O)C([N+](=O)[O-])C(O)C1O` (centres undefined), the reporter increase was inactive: 0.224%.

For `CC(C)CC(=O)NC(Sc1ccc(Cl)cc1)C(Cl)(Cl)Cl` (centres undefined), the reporter increase is inactive: -0.923%. Turning to `Nc1cc(N)c2nonc2c1[N+](=O)[O-]`, the reporter increase was inactive: -0.208%. Then `O=C(NC(Sc1ccncn1)C(Cl)(Cl)Cl)c1ccccc1` (centres undefined), with inactive: 1.7%; and `Oc1ccccc1CNc1ccccn1`, with inactive: -0.367%; and `Cc1ccc(OP(=O)(Nc2nccs2)Oc2ccc(C)cc2)cc1`, with inactive: 0.412%. As to `COc1ccccc1OP(=O)(Nc1ccc(C)cn1)Oc1ccccc1OC`, the reporter increase was inactive: -2.26%.

Take `Clc1ccc(Cl)c(NC2=NCC(CBr)S2)c1` (centres undefined): the reporter increase is inactive: 1.48%. Then `CN1CCCC(OC(=O)C(c2ccccc2)c2ccccc2)C1` (centres undefined), with inactive: -1.15%; and `NC(=O)c1cc([N+](=O)[O-])cc([N+](=O)[O-])c1N`, with inactive: -0.624%. Then `Cc1ccc(N/C(=N/P(=O)(N2CCOCC2)N2CCOCC2)N2CCOCC2)cc1`, with inactive: 1.48%; and `CN(C(=O)Cc1ccc(Cl)c(Cl)c1)[C@H]1CCCC[C@H]1N1CCCC1`, with inactive: -0.272%; and `CN(C)C(=O)OCCc1n(C)cc[n+]1C`, with inactive: 7.35%. As to `CC(C)=N/N=C(\N)N[N+](=O)[O-]`, the reporter increase was inactive: 1.31%. Consider `CC(C)c1nc(Nc2ccccc2)n(P(=O)(N(C)C)N(C)C)n1`, for which the reporter increase was inactive: 0.162%. For the compound `c1cc(-c2nn[nH]n2)ccc1-c1nn[nH]n1`, the reporter increase was inactive: 2.38%. For the compound `CC1CCN(C(=O)Oc2c(Cl)cc(Cl)c3cccnc23)CC1`, the reporter increase is inactive: 0.945%. In the case of `C[N+]1=C2C=CC=CC=C2SC12C([N+](=O)[O-])=CC([N+](=O)[O-])=C[C-]2[N+](=O)[O-]` (centres undefined) it was inactive: -16%.

Source of the values: PubChem BioAssay AID588692 (Broad Institute, 2011).
